This passage reports IC50 results from patent US9303023B2, “Pyrazole and imidazole derivatives useful as orexin antagonists” (ACTELION PHARMACEUTICALS LTD., priority 2011, dated 2016).

Protein sequences, listed by entry. Tags and fused reporters are not part of them.
UniProt O43614, whole entry: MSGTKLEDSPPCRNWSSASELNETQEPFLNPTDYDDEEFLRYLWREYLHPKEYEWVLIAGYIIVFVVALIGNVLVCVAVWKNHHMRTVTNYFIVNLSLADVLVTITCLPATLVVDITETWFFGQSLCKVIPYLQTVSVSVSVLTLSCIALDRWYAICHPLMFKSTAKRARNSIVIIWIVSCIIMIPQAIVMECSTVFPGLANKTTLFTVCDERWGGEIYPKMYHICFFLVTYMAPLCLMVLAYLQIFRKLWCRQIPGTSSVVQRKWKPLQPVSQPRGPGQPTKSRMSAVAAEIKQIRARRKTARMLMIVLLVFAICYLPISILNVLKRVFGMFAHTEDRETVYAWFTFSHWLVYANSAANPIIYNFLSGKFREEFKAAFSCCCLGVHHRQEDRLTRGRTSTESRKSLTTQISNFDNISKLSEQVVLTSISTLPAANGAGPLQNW

The target in the first assay is human orexin-2 receptor (Homo sapiens (Human), UniProt O43614). As to the kind of experiment: In vitro intracellular calcium measurements (FLIPR), antagonism of orexin-A response, OX2. It counts as cell-based. Particulars: CHO cells expressing human orexin-2 receptor; 3 nM orexin-A; compound incubation time 120 min.
As to `Cc1cccc(-c2scnc2C(=O)Nc2cnn(CCNc3cnc4ccccc4n3)c2)c1` [Example 117], the IC50 is 129 nM.

Consider `COc1nc(NCCn2cc(NC(=O)c3ncoc3-c3cccc(C)c3)cn2)nc(OC)c1C` [Example 124], for which the IC50 was found to be 180 nM.

With `COc1cc(OC)nc(N[C@H](C)Cn2cc(NC(=O)c3ncoc3-c3cccc(C)c3)cn2)n1` [Example 125], the half-maximal inhibitory concentration (IC50) was determined as 354 nM.

With `COc1cc(OC)nc(N[C@@H](C)Cn2cc(NC(=O)c3ncoc3-c3cccc(C)c3)cn2)n1` [Example 126], the IC50 was 270 nM.

Turning to `Cc1cccc(-c2ocnc2C(=O)Nc2cnn(CCNc3ncc(Br)cn3)c2)c1` [Example 128], the IC50 came out at 1160 nM.

Take `COc1cc(NCCn2cc(NC(=O)c3ncoc3-c3cccc(C)c3)cn2)nc(OC)n1` [Example 129]: the concentration for half-maximal inhibition (IC50) amounted to 30 nM.

Turning to `COc1cc(OC)nc(NCCCn2cc(NC(=O)c3ncoc3-c3cccc(C)c3)cn2)n1` [Example 130], the IC50 stood at 57 nM.

As to `COc1ccnc(NCCCn2cc(NC(=O)c3ncoc3-c3cccc(C)c3)cn2)n1` [Example 131], the IC50 stood at 43 nM.

Take `COc1cc(OC)nc(OCCn2nc(C)c(NC(=O)c3ncoc3-c3cccc(C)c3)c2C)n1` [Example 137]: the IC50 came out at 1020 nM.

In the case of `Cc1cccc(-c2ocnc2C(=O)Nc2c(C)nn(CCOc3nc4ccccc4o3)c2C)c1` [Example 138], the IC50 was found to be 966 nM.

For the compound `Cc1cccc(-c2ocnc2C(=O)Nc2cnn(CCNc3nc4ccccc4n3C)c2)c1` [Example 140, N-(1-(2-((1-methyl-1H-benzo[d]imidazol-2-yl)amino)ethyl)-1H-pyrazol-4-yl)-5-(m-tolyl)oxazole-4-carboxamide], the IC50 was found to be 909 nM.

On to `COc1ccc2ccn(CCCn3cc(NC(=O)c4ncoc4-c4cccc(C)c4)cn3)c2c1` [Example 142, N-(1-(3-(6-methoxy-1H-indol-1-yl)propyl)-1H-pyrazol-4-yl)-5-(m-tolyl)oxazole-4-carboxamide], for which the IC50 stood at 47 nM.

As for `COc1ccc2c(ccn2CCCn2cc(NC(=O)c3ncoc3-c3cccc(C)c3)cn2)c1` [Example 143, N-(1-(3-(5-methoxy-1H-indol-1-yl)propyl)-1H-pyrazol-4-yl)-5-(m-tolyl)oxazole-4-carboxamide], the IC50 was 891 nM.

For the compound `COc1ccc2[nH]cc(CCn3cc(NC(=O)c4ncoc4-c4cc(C)no4)cn3)c2c1` [Example 144, 5-(3-Methyl-isoxazol-5-yl)-oxazole-4-carboxylic acid {1-[2-(5-methoxy-1H-indol-3-yl)-ethyl]-1H-pyrazol-4-yl}-amide], the 50% inhibitory concentration (IC50) came out at 17 nM.

For the compound `COc1ccc2[nH]cc(CCn3cc(NC(=O)c4ncoc4-c4ccon4)cn3)c2c1` [Example 145, 5-lsoxazol-3-yl-oxazole-4-carboxylic acid {1-[2-(5-methoxy-1H-indol-3-yl)-ethyl]-1H-pyrazol-4-yl}-amide], the IC50 turned out to be 53 nM.

Still in this assay, the particulars now being: CHO cells expressing human orexin-2 receptor; 3 nM orexin-A; compound incubation time of 10 min (#).
For `Cc1cnc(NCCn2cc(NC(=O)c3ncsc3-c3cccc(C)c3)cn2)nc1` [Example 118], the IC50 turned out to be 959 nM.

Turning to `Cc1cccc(-c2ocnc2C(=O)Nc2cnn(CCNc3ncccn3)c2)c1` [Example 119], the IC50 stood at 1160 nM.

In the case of `COc1ccnc(NCCn2cc(NC(=O)c3ncoc3-c3cccc(C)c3)cn2)n1` [Example 120], the IC50 is 78 nM.

On to `Cc1cccc(-c2ocnc2C(=O)Nc2cn(CCNc3ncc4ccccc4n3)cn2)c1` [Example 121], for which the IC50 was 328 nM.

In the case of `Cc1cccc(-c2ocnc2C(=O)Nc2cn(CCNc3nc4ccccc4o3)cn2)c1` [Example 122], the IC50 was determined as 2780 nM.

Take `Cc1cccc(-c2ocnc2C(=O)Nc2cnn(CCNc3nc(C)cc(C)n3)c2)c1` [Example 123]: the IC50 amounted to 262 nM.

`Cc1cnc(OCCn2cc(NC(=O)c3ncoc3-c3cccc(C)c3)cn2)nc1` [Example 134]: the IC50 turned out to be 869 nM.

On to `CCN(CCn1cc(NC(=O)c2ncoc2-c2cccc(C)c2)cn1)c1nc(OC)cc(OC)n1` [Example 139, N-(1-(2-((4,6-dimethoxypyrimidin-2-yl)(ethyl)amino)ethyl)-1H-pyrazol-4-yl)-5-(m-tolyl)oxazole-4-carboxamide], for which the IC50 came out at 631 nM.
